Earlier results as cited in patent US20070016968A1, “Treatment of pain through expression of opioid receptors” (priority 2003, published 2007).

Columns and labels:
MOR-1 knockout mouse = MOR-1 knockout mouse (Matthes et al 1996)
[1] = test system: MOR-1 knockout mice (exon-1); settings: disruption in exon-1 (Schuller et al 1999)

| Structure (SMILES) | response to morphine (pain relief, reinforcement, dependence) (MOR-1 knockout mouse) | antinociception [1] |
| --- | --- | --- |
| CN1CC[C@]23c4c5ccc(O)c4O[C@H]2[C@@H](O)C=C[C@H]3[C@H]1C5 [morphine] | does not respond to morphine | not |
| CN1CC[C@]23c4c5ccc(O)c4O[C@H]2[C@@H](O[C@@H]2O[C@H](C(=O)O)[C@@H](O)[C@H](O)[C@H]2O)C=C[C@H]3[C@H]1C5 [morphine-6b-glucuronide] | – | still produce antinociception |
